Laboratory results as given in article PMC9555642 (PLoS ONE, 2022).

Sequences of proteins named here, by UniProt entry; tags and fusion partners are left off. A change or cut given only in a name is not applied to a line headed by its entry.
UniProt P56524: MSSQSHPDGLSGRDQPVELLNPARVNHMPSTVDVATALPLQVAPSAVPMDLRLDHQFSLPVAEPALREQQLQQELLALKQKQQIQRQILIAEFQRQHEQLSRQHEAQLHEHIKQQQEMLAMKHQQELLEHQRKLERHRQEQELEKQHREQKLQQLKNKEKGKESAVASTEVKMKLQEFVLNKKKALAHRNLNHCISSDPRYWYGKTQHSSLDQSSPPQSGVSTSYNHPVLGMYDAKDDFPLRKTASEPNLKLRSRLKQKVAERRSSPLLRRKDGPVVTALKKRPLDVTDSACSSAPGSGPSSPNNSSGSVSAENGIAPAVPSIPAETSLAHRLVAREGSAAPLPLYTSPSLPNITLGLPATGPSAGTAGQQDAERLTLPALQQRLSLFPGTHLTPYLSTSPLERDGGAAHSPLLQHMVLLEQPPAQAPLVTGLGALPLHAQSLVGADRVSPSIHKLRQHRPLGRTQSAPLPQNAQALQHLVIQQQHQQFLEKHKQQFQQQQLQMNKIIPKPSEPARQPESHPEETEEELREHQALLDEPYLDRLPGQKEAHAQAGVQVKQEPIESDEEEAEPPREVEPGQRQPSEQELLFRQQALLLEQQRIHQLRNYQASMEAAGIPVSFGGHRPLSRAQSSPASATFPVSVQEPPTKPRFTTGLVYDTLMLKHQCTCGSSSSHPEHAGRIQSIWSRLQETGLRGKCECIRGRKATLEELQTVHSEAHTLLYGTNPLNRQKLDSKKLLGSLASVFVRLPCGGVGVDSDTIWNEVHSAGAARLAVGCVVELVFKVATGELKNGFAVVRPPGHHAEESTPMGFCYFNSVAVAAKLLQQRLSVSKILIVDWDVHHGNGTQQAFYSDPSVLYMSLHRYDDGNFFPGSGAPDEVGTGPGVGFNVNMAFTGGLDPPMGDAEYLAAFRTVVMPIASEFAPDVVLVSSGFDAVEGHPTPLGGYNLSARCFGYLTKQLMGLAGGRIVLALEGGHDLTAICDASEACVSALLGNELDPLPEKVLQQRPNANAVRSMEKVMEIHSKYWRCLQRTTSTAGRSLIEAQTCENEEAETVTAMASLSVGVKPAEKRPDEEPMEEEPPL

Target: T1, HDAC4 (Homo sapiens, UniProt P56524)
T1 construct: purchased Eurofins Pharma Discovery Services 2493
Experiment: HDAC enzymatic activity (Eurofins)
Assay type: biochemical

- IC50: 910 nM
SMILES: CN1CCc2c(c3ccccc3n2Cc2ccc(C(=O)NO)cc2)C1 [Tubastatin A]
